Results as given in article PMC3758425 (Biochemistry, 2013).

Biological target: Human calmodulin (CaM) (human) (UniProt P0DP23)
Assay: NMR titration

“N-terminally acetylated, full-length α-synuclein (from UniProt P37840 1-140) (natural protein)” gave a Kd of 70 µM.
